{
  "sequences": {"note": "Amino acid sequences for entries named in this document (tags omitted).", "UniProt Q99759, whole entry": "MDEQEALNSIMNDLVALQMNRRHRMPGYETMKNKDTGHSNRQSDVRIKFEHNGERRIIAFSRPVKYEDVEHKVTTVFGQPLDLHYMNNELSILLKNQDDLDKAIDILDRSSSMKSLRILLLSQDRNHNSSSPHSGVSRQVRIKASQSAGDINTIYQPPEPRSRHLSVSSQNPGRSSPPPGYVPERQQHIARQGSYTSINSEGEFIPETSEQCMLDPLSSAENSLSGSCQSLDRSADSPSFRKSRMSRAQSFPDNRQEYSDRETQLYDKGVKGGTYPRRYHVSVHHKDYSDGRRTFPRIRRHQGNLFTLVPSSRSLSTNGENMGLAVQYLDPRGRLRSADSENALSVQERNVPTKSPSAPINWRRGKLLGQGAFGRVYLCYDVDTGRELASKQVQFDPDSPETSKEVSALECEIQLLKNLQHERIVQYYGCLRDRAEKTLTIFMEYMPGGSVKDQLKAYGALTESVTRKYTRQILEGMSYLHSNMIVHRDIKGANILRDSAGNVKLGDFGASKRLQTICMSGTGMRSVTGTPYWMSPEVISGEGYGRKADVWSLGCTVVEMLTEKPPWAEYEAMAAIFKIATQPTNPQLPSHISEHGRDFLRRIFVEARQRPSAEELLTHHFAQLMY"},
  "source": "PubChem BioAssay AID1529",
  "about": "(NMMLSC, 2009)",
  "note": "Only a part is listed here, and it is no random draw. Active and inactive are the calls of the source.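 How the source made its calls: active means binding response more than 3 SD above or below the average of its plate-row segment, actives on both sides; inconclusive means wells at one plate position flagged as instrument error; inactive means the rest.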",
  "data": [
    {"target": "Mitogen-activated protein kinase kinase kinase 3 (Homo sapiens) (UniProt Q99759)", "assay": "compounds raising or lowering MEK5 association with MEKK3 PB1 – biochemical, wildtype MEKK3, multiplex bead flow cytometry, Alexa488-MEK5, primary screen (AID 1529);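 further: Alexa488 bead fluorescence after subtracting the streptavidin-only scavenger bead signal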", "conditions": "bead-based flow cytometry, Alexa488-MEK5 binding to MEKK3; at 10 µM; actives lie on both sides; 0 = blocked by unlabeled MEK5, 100 = vehicle", "values": [
      {"smiles": "CCOC(=O)N1CCC(Nc2cccc(C)c2)CC1", "binding response (% of control)": "inactive: 107%"},
      {"smiles": "COc1cc(C(=O)NCC2(N(C)C)CCCCC2)ccc1OC(F)F", "binding response (% of control)": "inactive: 99%"},
      {"smiles": "Cc1ccc(OCC(C)C)c(CN(CCCl)CCCl)c1", "binding response (% of control)": "inactive: 104%"},
      {"smiles": "O=C(NCC1(N2CCCCC2)CCCCC1)c1ccc(F)cc1", "binding response (% of control)": "inactive: 100%"},
      {"smiles": "CCOC(=O)N1CCC(Nc2ccc(F)cc2)CC1", "binding response (% of control)": "inactive: 97%"},
      {"smiles": "COc1ccc(NC2CCN(CCc3ccccc3)CC2)c(OC)c1", "binding response (% of control)": "inactive: 101%"},
      {"smiles": "CCOc1ccc(C)cc1CN(CCCl)CCCl", "binding response (% of control)": "inactive: 95%"},
      {"smiles": "CCOC(=O)N1CCC(Nc2ccc(OC)cc2)CC1", "binding response (% of control)": "inactive: 106%"},
      {"smiles": "N#CC1(Nc2ccccc2)CCN(Cc2ccccc2)CC1", "binding response (% of control)": "inactive: 105%"},
      {"smiles": "O=C(OC1CN2CCC1CC2)C1c2ccccc2Oc2ccccc21", "note": "(centres undefined)", "binding response (% of control)": "inactive: 107%"},
      {"smiles": "O=C(NCC1(N2CCOCC2)CCCCC1)c1cc2ccccc2o1", "binding response (% of control)": "inactive: 101%"},
      {"smiles": "Cc1cc(C)cc(N(C(=O)c2ccccc2)C2CCN(C(=O)OC(C)(C)C)CC2)c1", "binding response (% of control)": "inactive: 107%"},
      {"smiles": "CSc1ccccc1C(=O)NCC1(N2CCCCC2)CCCCC1", "binding response (% of control)": "inactive: 101%"},
      {"smiles": "O=C(NCC1(N2CCCCC2)CCCCC1)c1ccc(=O)[nH]c1", "binding response (% of control)": "inactive: 106%"},
      {"smiles": "COc1ccc(C(=O)NCC2(N3CCCCC3)CCCCC2)cc1", "binding response (% of control)": "inactive: 102%"},
      {"smiles": "COc1ccc(C(=O)NCC2(N3CCCCC3)CCCCC2)c(OC)c1OC", "binding response (% of control)": "inactive: 103%"},
      {"smiles": "CC(C)(C)OC(=O)N1CCC(N(C(=O)c2ccccc2)c2ccc(F)cc2)CC1", "binding response (% of control)": "inactive: 99%"},
      {"smiles": "CCCOc1ccc(C(=O)NCC2(N(C)C)CCCCC2)cc1OC", "binding response (% of control)": "inactive: 100%"},
      {"smiles": "CN1CCC(Nc2cccc(F)c2)CC1", "binding response (% of control)": "inactive: 95%"},
      {"smiles": "COc1cc(OC)c(C(=O)NCC2(N(C)C)CCCCC2)cc1OC", "binding response (% of control)": "inactive: 103%"},
      {"smiles": "COc1ccc(CN(CCCl)CCCl)cc1Cl", "binding response (% of control)": "inactive: 101%"},
      {"smiles": "CN(C)c1cccc(C(=O)NCC2(N3CCCCC3)CCCCC2)c1", "binding response (% of control)": "inactive: 105%"},
      {"smiles": "CC(C)c1ccc(NC2CCN(C(=O)OC(C)(C)C)CC2)cc1", "binding response (% of control)": "inactive: 99%"},
      {"smiles": "COc1ccc(NC2CCN(C(=O)OC(C)(C)C)CC2)cc1", "binding response (% of control)": "inactive: 90%"},
      {"smiles": "CN1CCN(CCOC(=O)C(O)(c2ccccc2)c2ccccc2)CC1", "binding response (% of control)": "inactive: 110%"},
      {"smiles": "O=C(NCC1(N2CCOCC2)CCCCC1)c1cc(=O)[nH]c2ccccc12", "binding response (% of control)": "inactive: 101%"},
      {"smiles": "COc1cc(C(=O)NCC2(N3CCCCC3)CCCCC2)ccc1OC(F)F", "binding response (% of control)": "inactive: 103%"},
      {"smiles": "O=C(NCC1(N2CCCCC2)CCCCC1)c1cccc(C(F)(F)F)c1", "binding response (% of control)": "inactive: 97%"},
      {"smiles": "O=C(NCC1(N2CCCCC2)CCCCC1)c1cccc([N+](=O)[O-])c1", "binding response (% of control)": "inactive: 99%"}
    ]}
  ]
}
